Assay results as given in publication PMC7311425, “DREAM-in-CDM Approach and Identification of a New Generation of Anti-inflammatory Drugs Targeting mPGES-1” (Scientific Reports, 2020).

Biological target: T1, human mPGES-1 (Homo sapiens, UniProt O14684)
T1 construct: made in house
T1 sequence (O14684 1-152): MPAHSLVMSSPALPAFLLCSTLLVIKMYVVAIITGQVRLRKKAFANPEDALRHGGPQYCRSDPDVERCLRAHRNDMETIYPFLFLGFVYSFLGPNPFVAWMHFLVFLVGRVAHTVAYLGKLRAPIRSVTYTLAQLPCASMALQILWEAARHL
Test: in vitro inhibitory activity against human mPGES-1 (PGE2 ELISA assay)
Format: biochemical
Conditions: IC50 (µM)
Protocol: The above computational predictions were followed by in vitro activity assays for their actual inhibitory activity against human mPGES-1 using an ELISA assay described in our previous reports[32]–[34]. […] Specifically, 15 FDA-approved drugs (see Fig. S1 of the Supporting Information for the molecular structures) were assayed for their inhibitory activity against human mPGES-1.
The protocol for the protein preparation and in vitro activity assays were the same as described previously[51]–[54]. The enzyme activity assays were performed on ice in 1.5 ml microfuge tubes by using the expressed human or mouse mPGES-1. The reaction mixture contained: 0.2 M Na2HPO4/NaH2PO4, pH 7.2, 10 µL; 0.1 M GSH, 2.5 µL; diluted microsomal enzyme (80 µg/mL), 1 µL; PGH2 (0.31 mM in DMF), 5 µL; 1 µL inhibitor; and H2O in a final reaction volume of 100 µL. PGH2 was stored in dry ice and used to initiate the reaction. Compounds were incubated with the enzyme for 15 min at room temperature before the addition of cold PGH2 ([…]) to initiate the enzyme reaction. After 30 s, 10 µL of SnCl2 (40 mg/mL) in ethanol was added to stop the reaction. […] The reaction mixture was placed on ice until PGE2 production was determined by the PGE2 enzyme immunoassay as described earlier. IC50 values of the inhibitors were calculated by using the GraphPad Prism 7.

For `C[C@]12C=CC(=O)C=C1CC[C@@H]1[C@@H]2[C@@H](O)C[C@@]2(C)[C@H]1CC[C@]2(O)C(=O)CO` [Prednisolone], the IC50 was 12.6 ± 1.6 µM.
